The experiment addresses T1, Jak3 (Homo sapiens, UniProt P52333).
T1 construct: Jak3 enzyme (aa 811-1103); expressed in SF9 cells as a GST fusion; GST; made in house; host or cells: SF9 insect cells
Description: In vitro Jak3 kinase activity measured by trFRET. The experiment is classed as biochemical. The note with it: Jak3 enzyme aa 811-1103, 0.001 mM ATP. An excerpt:
In Vitro Jak3 Kinase Activity Measured by Time-Resolved Fluorescence Resonance Energy Transfer (trFRET)

By UniProt entry, the sequences of proteins in these tests, tags left out. Residues count along the entry.
UniProt P52333, 811-1103: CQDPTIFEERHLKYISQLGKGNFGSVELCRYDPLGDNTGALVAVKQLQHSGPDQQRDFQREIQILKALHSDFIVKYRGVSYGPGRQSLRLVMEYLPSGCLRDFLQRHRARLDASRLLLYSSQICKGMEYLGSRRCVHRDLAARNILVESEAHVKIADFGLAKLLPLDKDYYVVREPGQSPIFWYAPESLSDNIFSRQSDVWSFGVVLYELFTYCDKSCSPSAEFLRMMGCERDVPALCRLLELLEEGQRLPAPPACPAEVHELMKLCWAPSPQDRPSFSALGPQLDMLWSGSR

Each structure is given as a SMILES string.

Take `c1cc2c(ncn3cnc(C4CCCCC4)c23)[nH]1` [Example #1, 1-Cyclohexyl-7H-imidazo[1,5-c]pyrrolo[3,2-e]pyrimidine]: the IC50 is 100 to 1000 nM.

As usually defined, the IC50 is the concentration needed to halve the response being measured. Lower therefore signals higher potency.

Values taken from US20120330012A1, “Novel Tricyclic Compounds” (ABBOTT LABORATORIES, priority 2011, published 2012).
